Experimental data taken from PubChem BioAssay (NCI).
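Values below derive from 48-hour exposures of cells grown in 96-well plates, with endpoints linearly interpolated between the two concentrations bracketing the appropriate inhibition level. At the GI50, growth is halved. The concentration for full growth arrest is given as TGI.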

Experiments:
Assay in all cases: NCI anticancer screen, dose series, 48 h
[1] = system: NCI-H23 lung
[2] = system: NCI-H322M lung
[3] = system: NCI-H460 lung
[4] = system: NCI/ADR-RES ovarian
[5] = system: OVCAR-3 ovarian
[6] = system: OVCAR-4 ovarian
[7] = system: OVCAR-5 ovarian
[8] = system: OVCAR-8 ovarian
[9] = system: PC-3 prostate
[10] = system: RPMI-8226 leukemia
[11] = system: RXF 393 renal
[12] = system: SF-268 CNS
[13] = system: SF-295 CNS
[14] = system: SF-539 CNS
[15] = system: SK-MEL-2 melanoma
[16] = system: SK-MEL-28 melanoma
[17] = system: SK-MEL-5 melanoma
[18] = system: SK-OV-3 ovarian
[19] = system: SN12C renal
[20] = system: SNB-19 CNS
[21] = system: SR leukemia
[22] = system: SW-620 colon
[23] = system: T-47D breast
[24] = system: TK-10 renal
[25] = system: U251 CNS
[26] = system: UACC-257 melanoma
[27] = system: UACC-62 melanoma
[28] = system: UO-31 renal

With n1[nH]nc2c1c1n[nH]nc1c1n[nH]nc21 the GI50 [1] was > 100 µM, the TGI [1] was > 100 µM and the GI50 [2] was > 100 µM. For the same compound, the TGI [2] was > 100 µM, the GI50 [3] was > 100 µM and the TGI [3] was > 100 µM. The GI50 [4] was > 100 µM, the TGI [4] was > 100 µM and the GI50 [5] was > 100 µM. The TGI [5] was > 100 µM, the GI50 [6] was > 100 µM and the TGI [6] was > 100 µM. For the same compound, the GI50 [7] was > 100 µM, the TGI [7] was > 100 µM and the GI50 [8] was > 100 µM. For the same compound, the TGI [8] was > 100 µM, the GI50 [9] was > 100 µM and the TGI [9] was > 100 µM. The GI50 [10] was > 100 µM, the TGI [10] was > 100 µM and the GI50 [11] was > 100 µM. The TGI [11] was > 100 µM, the GI50 [12] was > 100 µM and the TGI [12] was > 100 µM. For the same compound, the GI50 [13] was > 100 µM, the TGI [13] was > 100 µM and the GI50 [14] was > 100 µM. For the same compound, the TGI [14] was > 100 µM, the GI50 [15] was > 100 µM and the TGI [15] was > 100 µM. For the same compound, the GI50 [16] was > 100 µM, the TGI [16] was > 100 µM and the GI50 [17] was > 100 µM. For the same compound, the TGI [17] was > 100 µM, the GI50 [18] was > 100 µM and the TGI [18] was > 100 µM. For the same compound, the GI50 [19] was > 100 µM, the TGI [19] was > 100 µM and the GI50 [20] was > 100 µM. The TGI [20] was > 100 µM, the GI50 [21] was > 100 µM and the TGI [21] was > 100 µM. For the same compound, the GI50 [22] was > 100 µM, the TGI [22] was > 100 µM and the GI50 [23] was > 100 µM. For the same compound, the TGI [23] was > 100 µM, the GI50 [24] was > 100 µM and the TGI [24] was > 100 µM. For the same compound, the GI50 [25] was > 100 µM, the TGI [25] was > 100 µM and the GI50 [26] was > 100 µM. The TGI [26] was > 100 µM, the GI50 [27] was > 100 µM and the TGI [27] was > 100 µM. For the same compound, the GI50 [28] was > 100 µM and the TGI [28] was > 100 µM.
